# Exposed polarity of cyclic peptides

Source: CycPeptMPDB (Li et al. 2023), which took these values from Bockus et al. 2015, doi:10.1021/acs.jmedchem.5b00128.

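Conditions beyond the assay type are not listed; see the original paper. Other peptides of the study may be missing here.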

EPSA reports exposed polarity as measured by chromatography; lower is less polar.

| EPSA (Å2) | structure (SMILES) |
|---|---|
| 77 | CC(C)C[C@@H]1NC(=O)[C@H](Cc2ccc(O)cc2)N(C)C(=O)[C@H]2CCCN2C(=O)[C@H](CC(C)C)NC(=O)[C@H](CC(C)C)N(C)C(=O)[C@@H](CC(C)C)N(C)C1=O |
| 57 | C/C1=C\[C@@H](CC(C)C)NC(=O)[C@@H]2CCCN2C(=O)[C@@H](CC(C)C)N(C)C(=O)C[C@H](O)[C@H](CC(C)C)NC(=O)[C@@H](CC(C)C)N(C)C(=O)[C@@H](CC(C)C)N(C)C1=O |
| 55 | CC(C)C[C@@H]1NC(=O)[C@H](CC(C)C)N(C)C(=O)[C@H](CC(C)C)N(C)C(=O)C[C@H](O)[C@H](CC(C)C)NC(=O)[C@@H]2CCCN2C(=O)[C@H](CC(C)C)N(C)C(=O)C[C@@H]1O |
| 57 | CC(C)C[C@@H]1NC(=O)[C@H]2CCCN2C(=O)[C@H](CC(C)C)N(C)C(=O)C[C@@H](O)[C@@H](CC(C)C)NC(=O)[C@H](CC(C)C)N(C)C(=O)[C@H](CC(C)C)N(C)C(=O)C[C@@H]1O |
| 57 | CC(C)C[C@@H]1NC(=O)[C@H]2CCCN2C(=O)[C@H](CC(C)C)N(C)C(=O)C[C@H](O)[C@H](CC(C)C)NC(=O)[C@H](CC(C)C)N(C)C(=O)[C@@H](CC(C)C)N(C)C(=O)C[C@@H]1O |
| 61 | CC(C)C[C@@H]1NC(=O)[C@H]2CCCN2C(=O)[C@@H](CC(C)C)N(C)C(=O)C[C@@H](O)[C@@H](CC(C)C)NC(=O)[C@@H](CC(C)C)N(C)C(=O)[C@@H](CC(C)C)N(C)C(=O)C[C@@H]1O |
| 56 | C/C1=C\[C@@H](CC(C)C)NC(=O)[C@@H]2CCCN2C(=O)[C@H](CC(C)C)N(C)C(=O)C[C@@H](O)[C@@H](CC(C)C)NC(=O)[C@H](CC(C)C)N(C)C(=O)[C@H](CC(C)C)N(C)C1=O |
| 62 | CC(C)C[C@@H]1NC(=O)[C@@H](CC(C)C)N(C)C(=O)[C@H](CC(C)C)N(C)C(=O)C[C@H](O)[C@H](CC(C)C)NC(=O)[C@H]2CCCN2C(=O)[C@H](CC(C)C)N(C)C(=O)C[C@@H]1O |
| 61 | CC(C)C[C@@H]1NC(=O)[C@H]2CCCN2C(=O)[C@H](CC(C)C)N(C)C(=O)C[C@H](O)[C@H](CC(C)C)NC(=O)[C@H](CC(C)C)N(C)C(=O)[C@H](CC(C)C)N(C)C(=O)C[C@@H]1O |